Laboratory results taken from PubChem BioAssay AID2796 (The Scripps Research Institute Molecular Screening Center, 2010).
The list shows a part of the results, in another mix than the full data. Some salts and complexes are drawn in separate pieces, as the source files them; their charges need not balance. Activity calls are given as the source filed them. No stated cut-off is given here; in the data, active means activation above about 47%; inactive means the rest.

Sequences of proteins named here, by UniProt entry; tags and fusion partners are left off.
UniProt P35869, whole entry: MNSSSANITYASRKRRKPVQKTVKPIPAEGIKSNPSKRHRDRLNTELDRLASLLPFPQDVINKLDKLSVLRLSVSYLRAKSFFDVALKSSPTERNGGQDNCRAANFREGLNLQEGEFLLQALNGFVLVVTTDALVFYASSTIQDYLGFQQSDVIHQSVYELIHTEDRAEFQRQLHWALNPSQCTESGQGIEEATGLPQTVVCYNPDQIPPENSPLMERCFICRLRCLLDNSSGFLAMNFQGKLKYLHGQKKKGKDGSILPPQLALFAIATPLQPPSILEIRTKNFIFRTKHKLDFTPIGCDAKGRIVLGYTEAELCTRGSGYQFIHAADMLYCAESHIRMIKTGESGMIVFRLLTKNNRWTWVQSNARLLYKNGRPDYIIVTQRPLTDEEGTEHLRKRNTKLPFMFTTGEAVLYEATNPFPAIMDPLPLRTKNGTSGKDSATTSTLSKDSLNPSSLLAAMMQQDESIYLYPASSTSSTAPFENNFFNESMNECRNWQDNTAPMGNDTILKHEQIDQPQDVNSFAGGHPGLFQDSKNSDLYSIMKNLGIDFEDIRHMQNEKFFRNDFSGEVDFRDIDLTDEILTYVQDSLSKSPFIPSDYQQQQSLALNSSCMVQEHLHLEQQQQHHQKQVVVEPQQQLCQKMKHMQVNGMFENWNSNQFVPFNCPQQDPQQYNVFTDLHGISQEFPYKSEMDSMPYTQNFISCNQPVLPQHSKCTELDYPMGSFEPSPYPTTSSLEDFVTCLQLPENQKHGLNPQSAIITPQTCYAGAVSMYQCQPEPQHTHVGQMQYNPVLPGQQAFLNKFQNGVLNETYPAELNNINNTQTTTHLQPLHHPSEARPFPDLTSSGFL

molecular target: Aryl hydrocarbon receptor (Homo sapiens) (UniProt P35869); test: AHR activators, primary screen, cell-based, luminescence, luciferase reporter, human (AID 2796); settings: AHR-responsive luciferase reporter cells, at 5 µM, hits give high values;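 further: 0% = vehicle wells and 100% = reference agonist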

Compound	activation
CP(=O)(Nc1ccccc1Br)Oc1ccccc1 (stereo not drawn)	inactive: -0.02%
COc1ccccc1OP(C)(=O)Nc1ccccc1 (stereo not drawn)	inactive: 1.57%
CP(=S)(Nn1cnnc1)Oc1ccccc1 (stereo not drawn)	inactive: 2.81%
CCc1ccc(OP(C)(=O)N2CCN(c3ccc([N+](=O)[O-])cc3)CC2)cc1 (stereo not drawn)	inactive: 0.97%
CP(=O)(NC(=O)Nc1ccccc1)Oc1ccccc1 (stereo not drawn)	inactive: 5.75%
Cc1cc(C)cc(OP(C)(=O)Nc2ccc(SC(F)(F)F)cc2)c1 (stereo not drawn)	inactive: -0.31%
CP(=O)(Nc1ccc(SC(F)(F)F)cc1)Oc1ccc(Cl)cc1 (stereo not drawn)	inactive: -1.6%
Cc1cccc(C)c1OP(C)(=O)Nc1ccc(SC(F)(F)F)cc1 (stereo not drawn)	inactive: 1.96%
CP(=O)(Oc1ccccc1)OC(c1ccccc1)C(F)(F)F (stereo not drawn)	inactive: 7.52%
CP(=O)(Nc1ccccn1)Oc1ccc(Cl)cc1 (stereo not drawn)	inactive: 0.51%
O=[N+]([O-])c1cc([N+](=O)[O-])c(O)c([N+](=O)[O-])c1.c1ccc(Oc2ccncc2)cc1	inactive: -2%
CCOC(=O)c1ccc(NP(C)(=O)Oc2ccc(OC)cc2)cc1 (stereo not drawn)	inactive: 4.5%
CCOP(C)(=S)SCC(=O)NC(C)C(=O)O (stereo not drawn)	inactive: 3.12%
CCN(CC)CCCOC(=O)C(O)(c1ccccc1)c1ccccc1	inactive: -0.91%
O=[N+]([O-])c1ccc2c(c1)C=Nc1ccccc1O2	inactive: -1.9%
CC(C)(C)c1ccc(OP(C)(=O)Nc2ccc(SC(F)(F)F)cc2)cc1 (stereo not drawn)	inactive: 0.25%
Cc1cccc(C)c1OP(C)(N)=O (stereo not drawn)	inactive: 0.16%
O=[N+]([O-])c1cc([N+](=O)[O-])c(Nc2cccnc2)c([N+](=O)[O-])c1	inactive: 26.9%
Cc1cc(C)cc(OP(C)(N)=O)c1 (stereo not drawn)	inactive: -1.15%
COc1ccccc1OP(C)(=O)Nc1cc(Cl)ccc1C (stereo not drawn)	inactive: 2.78%
COc1ccc(OP(C)(=O)Nc2cccc(F)c2)cc1 (stereo not drawn)	inactive: 1.15%
COc1ccccc1OP(C)(=O)Nc1ccc(C)cc1 (stereo not drawn)	inactive: 5.6%

Compound	activation
Cc1ccc(NP(C)(=O)Oc2ccccc2)c(C)c1 (stereo not drawn)	inactive: 1.89%
CCOC(=O)c1ccc(NP(C)(=O)Oc2ccccc2)cc1 (stereo not drawn)	inactive: 15.2%
O=C(O)c1cccc(Nc2c([N+](=O)[O-])cc([N+](=O)[O-])cc2[N+](=O)[O-])c1	inactive: -0.81%
CC1=NCCc2c1[nH]c1ccccc21.O=[N+]([O-])c1cc([N+](=O)[O-])c(O)c([N+](=O)[O-])c1	inactive: 8.44%
CCOC(=O)c1ccc(NP(C)(=O)Oc2cc(C)cc(C)c2)cc1 (stereo not drawn)	inactive: 0.92%
Cc1cc(C)cc(OP(C)(=O)Nc2ccc(C)cc2C)c1 (stereo not drawn)	inactive: 4.34%
COc1ccccc1OP(C)(=O)Nc1cccc(Br)c1 (stereo not drawn)	inactive: -1.92%
Cc1ccc(C)c(NP(C)(=O)Oc2ccccc2)c1 (stereo not drawn)	inactive: -0.47%
CP(=O)(Nc1cccc(Br)c1)Oc1ccccc1 (stereo not drawn)	inactive: 0.89%
Cc1cc(C)cc(OP(C)(=O)Nc2ccccn2)c1 (stereo not drawn)	inactive: -1.19%
O=[N+]([O-])c1cc([N+](=O)[O-])c(-n2nnc3ccccc32)c([N+](=O)[O-])c1	inactive: -0.92%
Cc1nc2ccc3ccccc3c2s1.O=[N+]([O-])c1cc([N+](=O)[O-])c(O)c([N+](=O)[O-])c1	inactive: 0.87%
O=[N+]([O-])c1cc([N+](=O)[O-])c(-c2cnn(-c3ccccc3)c2)c([N+](=O)[O-])c1	inactive: 1.6%
O=[N+]([O-])c1cc([N+](=O)[O-])c(Nc2nnnn2CCO)c([N+](=O)[O-])c1	inactive: 1.3%
CC1=C2N=C(C=C3N=C(C(C)=C4[N-][C@@](C)([C@@H]5N=C1[C@](C)(CCC(=O)NC[C@@H](C)OP(=O)([O-])O[C@H]1[C@@H](O)[C@@H](n6cnc7cc(C)c(C)cc76)O[C@@H]1CO)[C@H]5CC(N)=O)[C@@](C)(CC(N)=O)[C@@H]4CCC(N)=O)[C@@](C)(CC(N)=O)[C@@H]3CCC(N)=O)C(C)(C)[C@@H]2CCC(N)=O.[C-]#N.[Co+3]	inactive: 5.37%
CCOC(=O)C(CC)C1=NC(C)(C)Cc2ccccc21.O=[N+]([O-])c1cc([N+](=O)[O-])c(O)c([N+](=O)[O-])c1 (stereo not drawn)	inactive: 1.37%
CP(=O)(Nc1ccc(SC(F)(F)F)cc1)Oc1ccccc1 (stereo not drawn)	inactive: -0.53%
CCCOc1ccc(NP(C)(=O)Oc2ccc(Cl)cc2)cc1 (stereo not drawn)	inactive: 7.64%
CN1CCCCC1COC(=O)C1(O)c2ccccc2CCc2ccccc21 (stereo not drawn)	inactive: 0.29%
COc1ccccc1OP(C)(=O)Nc1c(C)cccc1C (stereo not drawn)	inactive: 1.42%
CN(C)CCOC(=O)C(O)(c1ccccc1)C1CCCCC1 (stereo not drawn)	inactive: -2.71%
COc1ccc(NP(C)(=O)Oc2ccccc2OC)cc1 (stereo not drawn)	inactive: 1.35%

Compound	activation
COc1ccc(OP(C)(=O)Nc2cccc(Br)c2)cc1 (stereo not drawn)	inactive: -0.31%
O=[N+]([O-])c1cc([N+](=O)[O-])c(NCC2CCS(=O)(=O)C2)c([N+](=O)[O-])c1 (stereo not drawn)	inactive: -3.27%
CCOP(C)(=S)SCC(=O)NC(C)(CC)C(=O)O (stereo not drawn)	inactive: -4.21%
CP(=O)(Nc1ccc(SC(F)(F)F)cc1)Oc1ccc(F)cc1 (stereo not drawn)	inactive: 2.22%
Cc1ccccc1NP(C)(=O)Nc1ccccc1C	inactive: 3.5%
CP(=O)(Nc1ccc2c(c1)OCCO2)Oc1ccccc1 (stereo not drawn)	inactive: 12.3%
CP(=O)(Nc1ccccc1F)Oc1ccccc1 (stereo not drawn)	inactive: 1.13%
CC(C)c1ccc(OP(C)(=O)Nc2ccc(SC(F)(F)F)cc2)cc1 (stereo not drawn)	inactive: 2.51%
COc1ccc2c(c1O)-c1c(O)c(OC)cc3c1[C@H](C2)[N+](C)(C)CC3.O=[N+]([O-])c1cc([N+](=O)[O-])c([O-])c([N+](=O)[O-])c1[O-]	inactive: 0.24%
O=C(OC1CN2CCC1CC2)c1ccc([N+](=O)[O-])cc1 (stereo not drawn)	inactive: 1.53%
O=C(OCCN1CCN(CCOCc2ccccc2)CC1)C(O)(c1ccccc1)c1ccccc1	inactive: -5.11%
CCOC(=O)c1ccc(NP(C)(=O)Oc2ccc(F)cc2)cc1 (stereo not drawn)	inactive: -1.28%
COc1ccc(OP(C)(=O)Nc2ccc(SC(F)(F)F)cc2)cc1 (stereo not drawn)	inactive: 7.07%
CP(=O)(Nc1ccccc1)Oc1ccc(F)cc1 (stereo not drawn)	inactive: -1.23%
CCCCCOc1ccc(NP(C)(=O)Oc2ccc(Cl)cc2Cl)cc1 (stereo not drawn)	inactive: 0.53%
O=[N+]([O-])c1cc([N+](=O)[O-])c(OC2CCCCC2O)c([N+](=O)[O-])c1 (stereo not drawn)	inactive: 1.04%
CCN(CC)CCCOC(=O)C(O)(c1ccccc1)C1CCCCC1 (stereo not drawn)	inactive: -0.25%
COc1ccccc1OP(C)(=O)Nc1ccc(C)c(C)c1 (stereo not drawn)	inactive: 12.7%
COc1ccc(OP(C)(=O)Nc2ccccc2Br)cc1 (stereo not drawn)	inactive: 0.34%
Cc1cc(C)cc(OP(C)(=O)Nc2cccc(C(F)(F)F)c2)c1 (stereo not drawn)	inactive: 6.13%
CP(=O)(OCCOc1ccccc1)OCCOc1ccccc1	inactive: -2.45%
CP(=O)(Nc1ccc(Cl)cc1Cl)Oc1ccccc1 (stereo not drawn)	inactive: 1.74%

Compound	activation
Cc1nc2ccc3ccccc3c2o1.O=[N+]([O-])c1cc([N+](=O)[O-])c(O)c([N+](=O)[O-])c1	inactive: 11.2%
COc1ccc(OP(C)(=O)Nc2ccccn2)cc1 (stereo not drawn)	inactive: 0.54%
CN(C)CCOC(=O)C(O)(c1ccccc1)C1CCCC1 (stereo not drawn)	inactive: -0.96%
COc1ccccc1OP(C)(=O)Nc1ccc(Br)cc1 (stereo not drawn)	inactive: 7.71%
CP(=O)(Nc1ccccn1)Oc1ccccc1 (stereo not drawn)	inactive: -0.5%
COc1ccccc1OP(C)(=O)Nc1ccc(C)cc1C (stereo not drawn)	inactive: 16.7%
CCc1ccc(OP(C)(=O)O)cc1	inactive: -2.56%
O=[N+]([O-])c1cc([N+](=O)[O-])c(Nc2ccccn2)c([N+](=O)[O-])c1	inactive: 1.92%
Cc1c(NP(C)(=O)Oc2ccc(C(C)C)cc2)c(=O)n(-c2ccccc2)n1C (stereo not drawn)	inactive: -1.08%
COc1ccccc1OP(C)(=O)Nc1c(C)n(C)n(-c2ccccc2)c1=O (stereo not drawn)	inactive: 1.64%
O=C(OCCCN1CCCC1)C(O)(c1ccccc1)C1CCCCC1 (stereo not drawn)	inactive: -1.55%
CP(=O)(Oc1ccccc1)N1CCOC1=O (stereo not drawn)	inactive: 1.05%
CCc1ccc(OP(C)(=O)Nc2cccnc2)cc1 (stereo not drawn)	inactive: 1.78%
CCN(CC)CC(O)COC(=O)C(O)(c1ccccc1)C1CCCCC1 (stereo not drawn)	inactive: 3.18%
COc1ccc(OP(C)(=O)Nc2ccc(Br)cc2)cc1 (stereo not drawn)	inactive: 6.35%
CN(C)C(=O)c1c([N+](=O)[O-])cc([N+](=O)[O-])cc1[N+](=O)[O-]	inactive: 1.17%
CC(C)(C)c1ccc(OP(C)(=O)O)cc1	inactive: 2.94%
COc1ccccc1OP(C)(=O)Nc1ccccc1Br (stereo not drawn)	inactive: 3.23%
CP(=O)(Nc1ccc(Cl)cc1)Oc1ccc(F)cc1 (stereo not drawn)	inactive: -0.13%
CCOC(=O)c1ccc(NP(C)(=O)Oc2ccc(Cl)cc2)cc1 (stereo not drawn)	inactive: 0.96%
CP(=O)(OC12CC3CC(CC(C3)C1)C2)OC12CC3CC(CC(C3)C1)C2	inactive: -0.36%
Nc1ccc2c(ccc3cccnc32)n1.O=[N+]([O-])c1cc([N+](=O)[O-])c(O)c([N+](=O)[O-])c1	inactive: 10.6%
